In ChEMBL document CHEMBL1614629, “Extrapolation of human pharmacokinetic parameters from rat, dog, and monkey data: Molecular properties associated with extrapolative success or failure” (J Pharm Sci, 2005):
Some compounds may have been tested in ways that are not shown here.

Assays:
[1] = Clearance in rat after iv administration; format: ADME, organism-based; conditions: in vivo
[2] = Clearance in monkey after iv administration; format: ADME, organism-based; conditions: macaca, in vivo
[3] = Clearance in dog after iv administration; format: ADME, organism-based, Canis lupus familiaris; conditions: in vivo
[4] = Volume of distribution at steady state in monkey after iv administration; format: ADME, organism-based; conditions: macaca, in vivo
[5] = Volume of distribution at steady state in human after iv administration; format: ADME, organism-based; conditions: in vivo
[6] = Volume of distribution at steady state in dog after iv administration; format: ADME, organism-based, Canis lupus familiaris; conditions: in vivo
[7] = Clearance in human after iv administration; format: ADME, organism-based; conditions: in vivo

CCC(=O)N(c1ccccc1)C1(COC)CCN(CCn2nnn(CC)c2=O)CC1
clearance [1]: 50 mL/min/kg
clearance [2]: 24 mL/min/kg
clearance [3]: 19 mL/min/kg
Vdss [4]: 1.1 L/kg
Vdss [5]: 0.8 L/kg
Vdss [6]: 0.6 L/kg
clearance [7]: 6.7 mL/min/kg
